## Measured affinities in a library of Ab-14 heavy chain variants

Data: MIT Lincoln Laboratory AlphaSeq set, Li et al. 2023, doi:10.1038/s41467-023-39022-2, as distributed in FLAb.

Target peptide (SARS-CoV-2 spike, HR2 region): PDVDLGDISGINAS

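This is the validation round: designs drawn from the data on random variants, tested in the same kind of assay. Group labels follow the data file (Ctrl: baseline library sampled from a position-specific scoring matrix, with some repeated check sequences; Rand: our label for a block that the file lists under HC and that is probably the random mutants of the ten best first-round binders; En: ensemble of fine-tuned language models; GP: Gaussian process model; GPLM: also part of the Gaussian process libraries; HC: hill climbing; Gen: genetic algorithm; Gibbs: Gibbs sampling; a sequence that several methods proposed may carry one label only). Affinity was read by AlphaSeq, a pooled yeast mating assay with surface-displayed partners. The frequency of each diploid, read from paired DNA barcodes, reflects how well the two displayed proteins bind. A regression on co-assayed BCL2-family reference pairs converts the normalised counts of each replicate to an apparent Kd. Mating was done six times.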

Each scFv is VH, the linker GGGGSGGGGSGGGGS, VL, as in the parent Ab-14, and differs from it in the CDRs of the heavy chain only.
VH: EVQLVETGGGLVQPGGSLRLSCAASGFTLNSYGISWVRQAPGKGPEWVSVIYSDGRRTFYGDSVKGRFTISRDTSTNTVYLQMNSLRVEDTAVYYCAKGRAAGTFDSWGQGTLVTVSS
VL: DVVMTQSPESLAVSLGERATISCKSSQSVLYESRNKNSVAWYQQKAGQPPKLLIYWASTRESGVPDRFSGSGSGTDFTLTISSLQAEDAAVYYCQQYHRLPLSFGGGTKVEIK

Variants are written as CDR1, CDR2 and CDR3 of the heavy chain (limits as in the source). Parent: GFTLNSYGIS, VIYSDGRRTFYGDSVK, GRAAGTFDS. This list holds designs with at most six substitutions. Each Kd is an estimate from the mating assay, the geometric mean of the replicates in which the pair was seen; lower is stronger. An entry "no signal" has no value in the source: the pair was not observed among the diploids in any replicate. This suggests poor binding but is not conclusive.

The variant GFTLKSYGIS / VIYADGRRTFYGDSVK / GKAAGTFDV [GP_Gibbs] gave 570 pM (6 of 6 replicates). For GFTLNDYGIS / VIYSDGRWTQYIDSVK / GRAAGTFDS [Rand], the assay gave no signal (0 of 6 replicates). For GFTLNMYGIS / VIYSDGRRTFYGDSVK / GRTAGTFDS [GPLM_Gen], the assay gave 46 nM (6 of 6 replicates). For GFTLSSYGIS / VIYSDGRRTMYGDFVK / GRAAGTFDS [Ctrl], the assay gave no signal (0 of 6 replicates). With GFSLNSYGIS / VIYSDGRRTFYGDSVK / GRQAGTFDA [GPLM_Gibbs] the result was 17 nM (6 of 6 replicates). With GFTLNEYGIS / VIYSDGRRTFYADSVK / GRFAGTFSS [GPLM_HC] the result was 25 nM (6 of 6 replicates). With GFTLNSYGIS / VIYSDMRRTLYDDSVK / GDLAGTFDH [Rand] the result was no signal (0 of 6 replicates). With EFTLNDYGIS / VIYSAGRRTFYGDSVK / GRAALTFIS [Rand] the result was no signal (0 of 6 replicates).

The variant GFTLTSYGIS / VIYSDGRRTFYGDSVR / CRRAGTFDS [Ctrl] gave no signal (0 of 6 replicates). With GFDLNEYGIS / VIYADGRRTFYSDSVK / GEAAGTFDQ [En_HC] the result was 71 pM (4 of 6 replicates). For GFDLNSYGIS / VIYSDGRRTFYDDSVK / GQIAGTFDS [GPLM_HC], the assay gave 2.8 nM (6 of 6 replicates). The variant GFDLNEYGIS / VIYADGRRTAYADSVK / GEAAGTFDS [En_HC] gave 1.1 nM (6 of 6 replicates). For GFTLNEYGIS / VIYADGRRTFYADSVK / GNQAGTFDV [En_HC], the assay gave 380 pM (6 of 6 replicates). The variant GFTLNSYGIS / VIYSDGRRTFYGDDVK / GKTAGTFDS [GPLM_Gibbs] showed 9.5 nM (5 of 6 replicates). With GFDLNSYGIS / VIYSDGRRTFYGDQVK / GRTAGTFDE [GP_Gibbs] the result was 3.3 nM (6 of 6 replicates). For GFTLNSYGIS / VIYSDGRRTFYSDSVK / GRAGGIFDS [GPLM_HC], the assay gave no signal (0 of 6 replicates).

The variant GFWLNEYGIS / VIYSDGRRTFYVDSVK / GRQAGTFDS [GP_Gibbs] showed 27 nM (4 of 6 replicates). The variant GFTLASYGIS / VIYSDGRRTQYGDSVK / GRLAFTFDS [Ctrl] showed no signal (0 of 6 replicates). For GFTLNQYGIS / VIYSDGRRTFYSDSCK / GRAAGFFDS [Rand], the assay gave 640 nM (2 of 6 replicates). The variant GFDLNSYGIS / VIYSDGRRTFYIDSVK / GRAAGIFDS [GPLM_HC] showed no signal (0 of 6 replicates). The variant GFDLNSYGIS / VIYSDGKRTFYADKVK / GRTAGTFDS [GP_Gibbs] gave 18 nM (1 of 6 replicates). With GFTLNEYGIS / VIYSDGRRTFYGDSVK / GKTAGTFDS [GPLM_Gen] the result was 1.8 nM (6 of 6 replicates). The variant GFRLNEYGIS / VIYSDGRRTFYGDSVK / GRTAGTFDT [GP_Gen] showed 6.4 nM (6 of 6 replicates). With GFTLNSYGNS / VIYSDGRRTFYKGSVV / GRAAGTFDS [Ctrl] the result was no signal (0 of 6 replicates).

With GFSLNSYGIS / VIYSDGRRTFYGDSVK / GHAAGTFDS [GPLM_Gen] the result was 1.1 nM (6 of 6 replicates). The variant GFSLNSYGIS / VIYSDGRRTFYADSVK / GNAAGTFDT [GPLM_Gen] showed 940 pM (6 of 6 replicates). The variant GFTLNSYGIS / VIYSDGRRTFYSDSVK / GKAAGTFDP [GP_HC] gave 14 nM (6 of 6 replicates). For GFSLNYYGIS / VIYSDGRRTFYSDSVK / GKTAGTFDS [GP_Gibbs], the assay gave 12 nM (6 of 6 replicates). The variant GFDLNEYGIS / VIYADGRRTFYADSVK / GEAAGTFDI [En_HC] showed no signal (0 of 6 replicates). The variant GFELNSYGIS / VIYSDGRRTFYSDSVK / GEAAGTFDT [GPLM_Gen] gave 5.8 nM (6 of 6 replicates). The variant GFKLNSYGIS / VIYSDGRRTFYIDSVK / GREAGTFDS [GP_Gen] showed 35 nM (4 of 6 replicates). For GFNLNSYGIS / VIYSDGRRTFYTDSVK / GRQAGTFDS [GP_Gen], the assay gave 5.7 nM (6 of 6 replicates).

The variant GFTLNSYGIS / VIYSDFERTFYGDSVK / GRAAGTFDS [Ctrl] gave no signal (0 of 6 replicates). The variant GFDLNEYGIS / VIYADGMRTFYSDSVK / GEAAGTFDS [En_HC] showed 880 pM (6 of 6 replicates). With GFTLNDYGIS / VIYSDGRRTMYGDSHK / GFAAGTSSS [Ctrl] the result was no signal (0 of 6 replicates). The variant GFGLNEYGIS / VIYSDGRRTFYKDSVK / GRTAGTFDS [GPLM_Gen] showed 600 pM (6 of 6 replicates). The variant GFTLNDYGIS / VIYSDGRRTFYGDSVK / GRAAGTFMK [GP_HC] showed 16 nM (5 of 6 replicates). For KFNLNSYGIS / VIYSDGRRTFYGDSVK / GKAAGTFRS [Ctrl], the assay gave no signal (0 of 6 replicates). For GFNLNSYGIS / VIYSDGRRTFYGDMVK / GQAAGTFDS [GP_Gibbs], the assay gave no signal (0 of 6 replicates). For GFSLNSYGIS / VIYSDGRRTFYSDSVK / GEAAGTFDT [GPLM_Gen], the assay gave 3.2 nM (6 of 6 replicates).

The variant GFTRNDYGIS / VIYSDGRRTFYGDSVK / GRAAGTFDS [Ctrl] gave 32 µM (3 of 6 replicates). For GFELESYGIS / VIYSDGRRTFYGDSVK / GRTAGTFDS [GP_Gen], the assay gave 66 nM (2 of 6 replicates). With GFFLNDYGIS / VIYSDGRRTFYGDSVK / GSAAGTFDS [GP_HC] the result was 8.9 nM (6 of 6 replicates). The variant GFSLNSYGIS / VIYSVGRRTFYGDSVK / GRAKQTFDS [Ctrl] gave no signal (0 of 6 replicates). The variant GFQLNEYGIS / VIYSDGRRTFYVDSVK / GRHAGTFDS [GP_Gibbs] showed 58 nM (6 of 6 replicates). For GFQLNSYGIS / VIYSDGRRTFYGDSVK / GKNAGTFDT [GP_Gibbs], the assay gave 35 nM (6 of 6 replicates). The variant GFTLNSYGIS / VIYSDGRRTFYQDSVK / GQAAGTFDS [Ctrl+GPLM_Gen] showed 32 nM (10 of 12 replicates). The variant GFSLNEYGIS / VIYSDGRRTFYSDAVK / GRCAGTFDS [GP_HC] gave 220 nM (4 of 6 replicates).

The variant GFHLNTYGIS / VIYSDGMRTFYGDSVK / GRTAGTFDS [GP_Gibbs] gave 23 nM (4 of 6 replicates). The variant GFDLNSYGIS / VIYSDGRRTFYGDSVK / GRAAGWFLS [Rand] gave 480 nM (1 of 6 replicates). The variant GFTLNSYGIS / VIYSDGRRVFYGDSVK / ERAAGTFDS [Ctrl] showed 1.3 µM (2 of 6 replicates).

From the list, the first 9 with no signal in any replicate:

{"CDR-H1": "GFTLNDYGIS", "CDR-H2": "VIYSDGRWTQYIDSVK", "CDR-H3": "GRAAGTFDS", "group": "Rand", "apparent Kd": "no signal", "replicates with signal": "0/6"}
{"CDR-H1": "GFTLSSYGIS", "CDR-H2": "VIYSDGRRTMYGDFVK", "CDR-H3": "GRAAGTFDS", "group": "Ctrl", "apparent Kd": "no signal", "replicates with signal": "0/6"}
{"CDR-H1": "GFTLNSYGIS", "CDR-H2": "VIYSDMRRTLYDDSVK", "CDR-H3": "GDLAGTFDH", "group": "Rand", "apparent Kd": "no signal", "replicates with signal": "0/6"}
{"CDR-H1": "EFTLNDYGIS", "CDR-H2": "VIYSAGRRTFYGDSVK", "CDR-H3": "GRAALTFIS", "group": "Rand", "apparent Kd": "no signal", "replicates with signal": "0/6"}
{"CDR-H1": "GFTLTSYGIS", "CDR-H2": "VIYSDGRRTFYGDSVR", "CDR-H3": "CRRAGTFDS", "group": "Ctrl", "apparent Kd": "no signal", "replicates with signal": "0/6"}
{"CDR-H1": "GFTLNSYGIS", "CDR-H2": "VIYSDGRRTFYSDSVK", "CDR-H3": "GRAGGIFDS", "group": "GPLM_HC", "apparent Kd": "no signal", "replicates with signal": "0/6"}
{"CDR-H1": "GFTLASYGIS", "CDR-H2": "VIYSDGRRTQYGDSVK", "CDR-H3": "GRLAFTFDS", "group": "Ctrl", "apparent Kd": "no signal", "replicates with signal": "0/6"}
{"CDR-H1": "GFDLNSYGIS", "CDR-H2": "VIYSDGRRTFYIDSVK", "CDR-H3": "GRAAGIFDS", "group": "GPLM_HC", "apparent Kd": "no signal", "replicates with signal": "0/6"}
{"CDR-H1": "GFTLNSYGNS", "CDR-H2": "VIYSDGRRTFYKGSVV", "CDR-H3": "GRAAGTFDS", "group": "Ctrl", "apparent Kd": "no signal", "replicates with signal": "0/6"}

The range of this assay differs from that of the first round, and the authors advise against merging the two. The authors' rule: three or more of the six replicates give a measured affinity, fewer mean a poor binder. Nonspecific signal, from three strains lacking the peptide, appeared in 1% of pairings of all heavy chain designs, centred on 120 nM (5% of these signals below 7.0 nM); values are not corrected for it. A sequence that the file lists under several names has all its replicates pooled.